# According to article PMC7253625, “A Telomerase-Derived Peptide Exerts an Anti-Hepatitis B Virus Effect via Mitochondrial DNA Stress-Dependent Type I Interferon Production” (Frontiers in Immunology, 2020):
# How the values were obtained:
# HBV cccDNA = HBV cccDNA assay (RT-qPCR); format: cell-based, hepatitis B virus; conditions: HepG2 cells transfected with linearized 1.2x genotype C2 HBV plasmid; GV1001 10 μM, ETV 30 nM
# Description: HepG2 cells transiently transfected with a linearized 1.2x genotype C2 HBV plasmid were collected and incubated in lysis buffer A (10 mM Tris–HCl, pH 7.4, 1 mM EDTA, 50 mM NaCl, and 1% NP-40) for 10 min at 4°C. The lysates were centrifuged for 5 min at 14,000 rpm, and the nuclear pellet in lysis buffer B (10 mM Tris–HCL, 10 mM EDTA, 150 mM NaCl, 0.5% SDS) was sonicated at three to four pulses of 60% power and incubated overnight at 37°C after treatment with 0.5 mg/ml proteinase K. After the lysates were extracted with phenol–chloroform (1:1) and precipitated with ethanol, 1 μg DNA was treated with 10 U of PSAD (Plasmid safe DNase I, Epicenter, PA, United States) for 45 min at 37°C. The reaction was stopped by incubating for 30 min at 70°C. RT-qPCR was performed, and the 18S rRNA was used for normalization.
# HBV pgRNA = HBV pgRNA assay (RT-qPCR); format: cell-based, hepatitis B virus; conditions: HepG2 cells transfected with linearized 1.2x genotype C2 HBV plasmid; GV1001 10 μM, ETV 30 nM
# Description: Total RNA from cell pellets was extracted using TRIzol reagent (Invitrogen, Carlsbad, CA, United States) according to the provided protocol. The RNA samples were incubated with RQ1 DNase (Promega, United Kingdom) for 60 min at 37°C, mixed with 1 μl of stop solution, incubated at 65°C for 10 min to inactivate the DNase, and stored at −80°C until use. For detection of viral pgRNA, 2 μg of RNA was reverse-transcribed and amplified by the Reverse Transcription System (Promega, United Kingdom). Next, 2 μl of each cDNA was quantified by RT-qPCR analysis, and the 18S rRNA gene was used to normalize the RNA samples.
# cytosolic mtDNA = assay: Cytosolic mtDNA level, RT-qPCR; format: cell-based, human; conditions: HepG2-2.15 cells; GV1001 for 48 h; mtDNA1, mtDNA2, mtDNA3 regions
# Excerpt: (§1) For evaluating the HBV viral titers, HBV genomes from cell culture supernatants and pellets were purified using the QIAamp Blood DNA extraction kit (QIAGEN, Hilden, Germany) and quantitated by qPCR using a primer pair specific to the small S gene (SF: 5′-TTGACAAGAATCCTCACAATACC-3′) and antisense primer SR (positions 309–328, 5′-GGAGGTTGGGGACTGCGAAT-3′). The HBV DNA plasma standard containing 1 × 10^6 HBV genomic DNA copies/ml (HBV DNA Quantiplex, Chiron) was used to standardize the viral titers. The following primer sets were used to investigate the mRNA expression levels with RT-qPCR: 18S-F: 5′-[…]-3′ and 18S-R: 5′-CGATCCGAGGGCCTCACTA-3′, HO-1-F: 5′-TTG CCAGTGCCACCAAGTTC-3′, and HO-1-R: 5′-TCAGCAG CTCCTGCAACTCC-3′, IFNb-F: 5′-TTGTGCTTCTCCACTA CAGC-3′ and hIFNb-R: 5′-[…]-3′, mtDNA1-F: 5′[…]-3′ and mtDNA1-R: 5′-[…]-3′, mtDNA2-F: 5′-[…]-3′ and mtDNA2-R: 5′-AA AGTGCATACCGCC7AAAAG-3′, mtDNA3-F: 5′-TCCAACT CATGAGACCCACA-3′ and mtDNA3-R: 5′-TGAGGCT TGGATTAGCGTTT-3′).
# HepG2-2.15 cells = assay: Lactate dehydrogenase cytotoxicity assay, HepG2-2.15; format: cell-based, human; conditions: supernatant
# Description: (§2) HepG2 and Huh-7 cells were seeded (1 × 10^4 cells) in 96-well microplates and incubated with increasing concentrations of GV1001 for 3 days. Cell viability was determined using the MTT assay kit (Promega, Fitchburg, WI, United States). For analysis of the cytotoxicity of GV1001 and entecavir, CytoTox 96 Non-Radioactive Cytotoxicity Assays (G1780, Promega, Fitchburg, WI, United States) of the collected supernatant were performed according to the manufacturer’s protocol.
# heme oxygenase-1 (HO-1) = assay: HO-1 protein expression, Western blot; format: cell-based, human; conditions: 1.2x-WT plasmid-transfected HepG2 cells
# Description: (§3) The harvested cells were lysed using RIPA buffer (CST, #9806) containing protease inhibitor and phosphate inhibitor (Hoffmann-La Roche Inc.) and incubated for 20 min on ice. The lysed cells were centrifuged for 30 min at 13,000 rpm, and the lysates were collected for Western blotting. A Bradford assay was performed for protein quantification. Then, 5X loading buffer and PBS were added for protein quantification, and the samples were boiled for 5 min and chilled on ice. Protein samples were separated by electrophoresis, transferred to NC membranes, and blocked for 1 h with 5% skim milk or bovine serum albumin. The membranes were incubated overnight at 4°C with primary antibodies (1:1,000). On the next day, the membranes were washed with 0.1% Tween-20 in Tris–buffered saline and incubated in HRP secondary antibodies (1:2,000) for 2 h. After ECL solution was applied to the membrane, proteins were detected on an imager (LAS 2000).
# HepG2 cells = format: cell-based, human
# Description: as §2
# Huh-7 cells = format: cell-based, human
# Description: as §2
# HBV [1] = assay: Anti-HBV effect in HBV transgenic mice (serum HBsAg ELISA, serum HBV DNA qPCR); format: in vivo
# Description: Transgenic (TG) mice were generated by transferring the pHY92-1.1x-HBV-full genome plasmid (genotype A2) into C57B1/6N mice, and the TG mice used in this study constitutively express the HBV genome with the W4P mutation in the preS1 region ([19]). The age-matched TG mice were injected with GV1001 (50 μg/kg) and LMV (500 μg/kg) twice per week. Serum was collected from the orbital sinus of the mice at 4 and at 8 weeks. All animal experiments were approved by the Institutional Animal Care and Use Committee of the Seoul National University College of Medicine (SNU-170308).
# as §1
# type I IFN = assay: Type I IFN bioassay (ISRE luciferase reporter cells); format: cell-based, human; conditions: supernatant of treated cells added to ISRE-luciferase reporter cells for 6 h
# Description: For the indirect measurement of IFN levels using luciferase reporter genes, hMH55-293-ISRE cells integrating IFN-sensitive response elements (ISREs) associated with the luciferase reporter gene at the 3′ end were established using 5 μg of puromycin (Sigma-Aldrich, St. Louis, MO, United States). After the supernatant was collected from the cells treated with each reagent for 24 or 48 h, it was added to the hMH55-293-ISRE cells for 6 h. After incubation, the cells were washed with PBS and lysed by Reporter Lysis Buffer (E1500, Promega, Fitchburg, WI, United States) for 30 min at RT. Then, the luciferase assay reagent (E1500, Promega, Fitchburg, WI, United States) was added, and the luminescence was measured using a TECAN m200 reader (TECAN, Switzerland). For the neutralization assay, the HepG2-2.15 cells were seeded into six-well plates for 12 h. On the next day, the cells were pre-incubated with anti-IFNAR2 and anti-GAPDH antibodies for 2 h at RT on the rotator. After the cells were washed with PBS, they were treated with PBS (0.5%) or GV1001 (5 or 10 μM) for 12 h.
# HBV [2] = assay: Anti-HBV effect in HepG2 cells transiently transfected with 1.2x genotype C2 HBV genome plasmid (HBsAg ELISA, extracellular virion DNA qPCR); format: cell-based, hepatitis B virus; conditions: 10 μM, treatment for 2 days
# Description: For the analysis of the anti-HBV effect of GV1001, HepG2, Huh-7, or HepG2-2.15 cells were treated with PBS, entecavir, lamivudine, or GV1001 and incubated for 24 or 48 h. The supernatants were collected, and HBsAg and HBeAg ELISAs were conducted using a commercial Bioelisa HBsAg color ELISA Kit (BIOKIT, Barcelona, Spain) and a HBeAg ELISA kit (AccuDiag^TM, […], INC., Woodland Hills, CA, United States), respectively, according to the manufacturer’s procedures. Cell pellets were harvested and subjected to RNA extraction for RT-qPCR to determine the viral amount.
# For evaluating the HBV viral titers, HBV genomes from cell culture supernatants and pellets were purified using the QIAamp Blood DNA extraction kit (QIAGEN, Hilden, Germany) and quantitated by qPCR using a primer pair specific to the small S gene (SF: 5′-[…]-3′) and antisense primer SR (positions 309–328, 5′-[…]-3′). The HBV DNA plasma standard containing 1 × 10^6 HBV genomic DNA copies/ml (HBV DNA Quantiplex, Chiron) was used to standardize the viral titers. The following primer sets were used to investigate the mRNA expression levels with RT-qPCR: 18S-F: 5′-[…]-3′ and 18S-R: 5′-[…]-3′, HO-1-F: 5′-TTG […]-3′, and HO-1-R: 5′-TCAGCAG CTCCTGCAACTCC-3′, IFNb-F: 5′-[…] […]
# HBV [3] = assay: Anti-HBV effect in Huh-7 cells transiently transfected with 1.2x genotype C2 HBV genome plasmid (HBsAg ELISA, extracellular virion DNA qPCR); format: cell-based, hepatitis B virus; conditions: transfected Huh-7 cells, 10 μM, treatment for 2 days
# Description: (§4) For the analysis of the anti-HBV effect of GV1001, HepG2, Huh-7, or HepG2-2.15 cells were treated with PBS, entecavir, lamivudine, or GV1001 and incubated for 24 or 48 h. The supernatants were collected, and HBsAg and HBeAg ELISAs were conducted using a commercial Bioelisa HBsAg color ELISA Kit (BIOKIT, Barcelona, Spain) and a HBeAg ELISA kit (AccuDiag^TM, DIAGNOSTIC AUTOMATION, INC., Woodland Hills, CA, United States), respectively, according to the manufacturer’s procedures. Cell pellets were harvested and subjected to RNA extraction for RT-qPCR to determine the viral amount.
# (§5) For evaluating the HBV viral titers, HBV genomes from cell culture supernatants and pellets were purified using the QIAamp Blood DNA extraction kit (QIAGEN, Hilden, Germany) and quantitated by qPCR using a primer pair specific to the small S gene (SF: 5′-TTGACAAGAATCCTCACAATACC-3′) and antisense primer SR (positions 309–328, 5′-GGAGGTTGGGGACTGCGAAT-3′). The HBV DNA plasma standard containing 1 × 10^6 HBV genomic DNA copies/ml (HBV DNA Quantiplex, Chiron) was used to standardize the viral titers. […]
# 8-OHdG = 8-OHdG ELISA; format: cell-based, human; conditions: genomic DNA of HepG2-2.15 cells; GV1001 5 or 10 μM for 12 h
# Description: After the HepG2-2.15 cells were seeded into six-well plates for 12 h, they were treated with PBS (0.5%) or GV1001 (5 or 10 μM) for 12 h. From the pellets, genomic DNA was extracted using a QIAamp Blood DNA extraction kit (QIAGEN, Hilden, Germany). For the detection of 8-hydroxy-2′-deoxyguanosine (8-OHdG) activity, competitive ELISAs from an 8-OHdG analysis kit (OxiSelect Oxidative DNA Damage ELISA kit, Cell Biolabs, San Diego, CA, United States) was used according to the manufacturer’s protocol.
# HBV [4] = assay: Anti-HBV effect in stable HepG2-2.15 cells (extracellular virion qPCR, HBeAg ELISA); format: cell-based, hepatitis B virus; conditions: 48 h, dose-dependent
# Description: as §4, §5
# HBV nucleocapsid = HBV nucleocapsid formation, Western blot on native gels; format: cell-based, hepatitis B virus; conditions: transfected HepG2 cells; GV1001 1 nM–10 μM; native gel Western blot
# Description: as §3
smiles,measurement,setting,value
CC[C@H](C)[C@H](NC(=O)[C@H](Cc1ccccc1)NC(=O)[C@H](CCCNC(=N)N)NC(=O)[C@H](CC(C)C)NC(=O)[C@H](CCCNC(=N)N)NC(=O)[C@H](CO)NC(=O)[C@@H](NC(=O)[C@H](CC(C)C)NC(=O)[C@H](CC(C)C)NC(=O)[C@H](C)NC(=O)[C@@H]1CCCN1C(=O)[C@H](CCCNC(=N)N)NC(=O)[C@H](C)NC(=O)[C@@H](N)CCC(=O)O)[C@@H](C)O)C(=O)N1CCC[C@H]1C(=O)N[C@@H](CCCCN)C(=O)O [GV1001],cccDNA level vs PBS,HBV cccDNA,significantly reduced
same,pgRNA transcript level vs PBS,HBV pgRNA,significantly reduced
same,cytosolic mtDNA levels,cytosolic mtDNA,significantly enhanced
same,cytotoxicity (LDH assay),HepG2-2.15 cells,cytotoxicity was not observed
same,HO-1 expression,heme oxygenase-1 (HO-1),enhanced HO-1 expression in a dose-dependent manner
same,cytotoxicity (LDH assay),HepG2 cells,cytotoxicity was not observed
same,cytotoxicity (MTS cell viability),HepG2 cells,No cytotoxicity was observed
same,cytotoxicity (MTS cell viability),Huh-7 cells,No cytotoxicity was observed
same,"serum HBsAg level vs PBS, 4 weeks","HBV [1]; 50 μg/kg intravenously twice per week, after 4 weeks",did not significantly reduce
same,"serum extracellular virion level vs PBS, 4 weeks","HBV [1]; 50 μg/kg intravenously twice per week, after 4 weeks, qPCR",did not significantly reduce
same,"serum virions vs PBS, 8 weeks","HBV [1]; 50 μg/kg intravenously twice per week, after 8 weeks, qPCR",significant reduction
same,mean HBsAg reduction compared to PBS,"HBV [1]; GV1001 50 μg/kg intravenously twice per week, serum ELISA",20%
same,secreted IFN-I level (luciferase luminescence),type I IFN,significantly increased in a dose-dependent manner
same,HBsAg level vs PBS,HBV [2]; ELISA,decreased
same,extracellular HBV virion level vs PBS,HBV [2]; qPCR,decreased
same,HBsAg level vs PBS,HBV [3]; ELISA,decreased
same,extracellular HBV virion level vs PBS,HBV [3]; qPCR,decreased
same,8-OHdG level,8-OHdG,significantly elevated in a dose-dependent manner
same,HBeAg level,"HBV [4]; ELISA, reduction not definite compared with virion",reduced
same,extracellular HBV virion level,HBV [4]; qPCR,reduced
same,virion nucleocapsid levels,HBV nucleocapsid,reduced the virion nucleocapsid levels in a dose-dependent manner
